# PubChem BioAssay AID1347420 (Sanford-Burnham Center for Chemical Genomics, 2020)
# Amino acid sequences for entries named in this document (tags omitted). A change or cut given only in a name is not applied to a line headed by its entry.
# UniProt O00391: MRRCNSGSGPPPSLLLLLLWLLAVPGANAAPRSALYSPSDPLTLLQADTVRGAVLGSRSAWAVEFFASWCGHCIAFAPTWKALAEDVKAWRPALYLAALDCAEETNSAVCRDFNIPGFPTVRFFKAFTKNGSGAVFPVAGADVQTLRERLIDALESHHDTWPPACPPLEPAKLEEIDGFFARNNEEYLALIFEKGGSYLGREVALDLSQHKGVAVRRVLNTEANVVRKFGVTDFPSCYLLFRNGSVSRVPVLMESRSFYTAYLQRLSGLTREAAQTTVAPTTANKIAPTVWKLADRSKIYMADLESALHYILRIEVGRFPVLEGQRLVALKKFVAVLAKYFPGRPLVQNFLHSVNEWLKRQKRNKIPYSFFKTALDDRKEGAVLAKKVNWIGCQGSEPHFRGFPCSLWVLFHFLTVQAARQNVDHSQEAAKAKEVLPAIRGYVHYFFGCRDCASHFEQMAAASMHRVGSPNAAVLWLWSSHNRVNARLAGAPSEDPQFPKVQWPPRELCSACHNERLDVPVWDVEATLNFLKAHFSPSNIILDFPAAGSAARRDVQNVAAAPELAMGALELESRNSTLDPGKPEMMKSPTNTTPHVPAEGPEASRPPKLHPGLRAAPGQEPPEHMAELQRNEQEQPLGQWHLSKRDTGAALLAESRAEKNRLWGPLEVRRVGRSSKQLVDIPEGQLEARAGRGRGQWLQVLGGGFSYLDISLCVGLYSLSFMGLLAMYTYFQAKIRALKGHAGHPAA
# The entries are a selection whose mix differs from that of the whole data set. Records with an inconclusive call do not appear. Activity calls are given as the source filed them.
# Molecular target: Sulfhydryl oxidase 1 (Homo sapiens) (UniProt O00391)
# Test: inhibition of human sulfhydryl oxidase QSOX1 – biochemical, HyperBlu H2O2 luminescence, HTS, primary screen (AID 1347420); also: values above 100% were filed as inconclusive
# Details: recombinant QSOX1, HyperBlu H2O2 luminescence; at 12.5 µM; hits give high values; active = any value above zero
row,Compound,inhibition
1,CN(C(=O)Cc1ccc(Cl)c(Cl)c1)[C@H]1CCCC[C@@H]1N1CCCC1,inactive: -1.9%
2,CN(C(=O)Cc1ccc(Cl)c(Cl)c1)[C@@H]1CCCC[C@@H]1N1CCCC1,active: 13.3%
3,CN(CCCl)Cc1cc(Cl)c(NC2=NCCN2)c(Cl)c1,active: 10%
4,CN(C(=O)Cc1ccccc1)[C@@H]1CC[C@]2(CCCO2)C[C@H]1N1CCCC1,active: 31.8%
5,CN(C(=O)Cc1ccc(Cl)c(Cl)c1)[C@@H]1CC[C@]2(CCCO2)C[C@H]1N1CCCC1,active: 8.7%
